pIC50, pKi: −log10 of the molar value.

The target in assay [1] is T1, Gonadotropin-releasing hormone receptor (Homo sapiens, UniProt P30968).
T1 sequence (P30968 whole entry): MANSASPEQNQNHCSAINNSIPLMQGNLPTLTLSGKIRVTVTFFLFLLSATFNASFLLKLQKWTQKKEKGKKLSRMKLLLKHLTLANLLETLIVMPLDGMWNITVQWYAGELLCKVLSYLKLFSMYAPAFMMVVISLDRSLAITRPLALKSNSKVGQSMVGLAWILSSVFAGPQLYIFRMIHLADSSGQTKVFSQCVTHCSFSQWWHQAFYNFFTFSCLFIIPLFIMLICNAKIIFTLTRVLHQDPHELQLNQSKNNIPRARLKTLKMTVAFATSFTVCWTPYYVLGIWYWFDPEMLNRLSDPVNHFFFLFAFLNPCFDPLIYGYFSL
Briefly: Binding affinity to human recombinant GnRH receptor.

For assay [2], the target named is T1, Gonadotropin-releasing hormone receptor. Briefly: Antagonist activity at human recombinant GnRH receptor assessed as inhibition of GnRH-stimulated inositol phosphate accumulation. In kind it is functional.

As usually defined, the pKi is the negative decadic logarithm of the Ki, by convention in mol/L. In general, pIC50 refers to the negative decadic logarithm of the IC50, by convention in mol/L. On to `COc1nc(NCCCN2CCOCC2)nc(OC)c1NC(=O)c1ccc(Oc2cc3c(cc2C)CCC3(C)C)o1`, for which, in assay [1], the pKi was 9.40. The pIC50 in assay [2] was 8.48.
